Measured affinities in a library of Ab-95 light chain variants

The measurements come from Engelhart et al. 2022 (doi:10.1038/s41597-022-01779-4) through the FLAb antibody collection.

All variants were tested on one target, the spike HR2 peptide PDVDLGDISGINAS (SARS-CoV-2).

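The starting antibody came from a phage panning campaign against this peptide. Library AAYL52 holds single substitutions and randomly drawn double and triple substitutions in the CDRs. The assay is AlphaSeq: two haploid yeast populations carry antibody and antigen on their surface. The frequency of each diploid, read from paired DNA barcodes, reflects how well the two displayed proteins bind. A regression on co-assayed BCL2-family reference pairs converts the normalised counts of each replicate to an apparent Kd. Mating was done three times.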

The variants keep the heavy chain, the linker and the frameworks of Ab-95 (scFv order VH, a 15-residue (Gly4Ser)3 linker, VL).
VH: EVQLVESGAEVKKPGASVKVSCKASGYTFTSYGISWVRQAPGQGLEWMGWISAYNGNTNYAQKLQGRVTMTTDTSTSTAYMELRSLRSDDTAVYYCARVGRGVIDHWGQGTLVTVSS
VL: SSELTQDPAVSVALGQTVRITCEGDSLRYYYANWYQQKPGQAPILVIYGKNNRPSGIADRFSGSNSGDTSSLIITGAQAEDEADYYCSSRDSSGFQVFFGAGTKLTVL

The whole VL of each variant is written out.
The read-out is the apparent dissociation constant on a log10 scale (nM): the lower, the stronger.
Averages over replicates are reported, and they cover detected replicates only.
Where no diploid with the target was found in that replicate, the entry reads "ND": below detection, most likely a poor binder, though not proof of it.
As a blank, each scFv also met three strains without target: over library AAYL52, 28% of these pairings were detected, typically at 3.91 and seldom below 2.90. Also given: how often the same scFv was detected with the empty control strains.
Parent in this assay: reference entry 2.31, copy in this library 2.25.

Variant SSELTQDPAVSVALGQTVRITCEGDSLRYYYANWYQQKPGQAPILVIYSKNNRPHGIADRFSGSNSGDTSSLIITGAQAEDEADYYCSSRDSSGFQVFFGAGTKLTVL showed 4.40, 2.79, 3.54 (mean 3.58; controls 1 of 9).
Variant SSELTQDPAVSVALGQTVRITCEGDSLRYYYANWYQQKPGQAPILVIYGKTNTPSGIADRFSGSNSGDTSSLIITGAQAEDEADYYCSSRDSSGHQVFFGAGTKLTVL showed 4.71, 4.62, ND (mean 4.67; controls 5 of 9).
Variant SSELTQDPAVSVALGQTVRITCEGDSLRYYYYNWYQQKPGQAPILVIYGTNNRPSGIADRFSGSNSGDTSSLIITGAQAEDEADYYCSSRDSSGFQVFFGAGTKLTVL showed 2.83, 2.58, 2.91 (mean 2.77; controls 3 of 9).
Variant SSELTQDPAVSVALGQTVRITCEGDSLRKYYANWYQQKPGQAPILVIYGKNNRPSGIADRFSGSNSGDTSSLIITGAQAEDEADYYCSSRDSSMFQRFFGAGTKLTVL showed ND, ND, ND (controls 0 of 9).
Variant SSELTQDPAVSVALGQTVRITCEGDSLRNYYANWYQQKPGQAPILVIYGKNNRPSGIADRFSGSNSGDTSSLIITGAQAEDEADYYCSSRRSSDFQVFFGAGTKLTVL showed 3.11, ND, ND (controls 4 of 9).
Variant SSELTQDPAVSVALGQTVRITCEGDSLCYYYEWWYQQKPGQAPILVIYGKNNRPSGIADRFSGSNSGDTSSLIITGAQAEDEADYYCSSRDSSGFQVFFGAGTKLTVL showed ND, ND, ND (controls 1 of 9).
Variant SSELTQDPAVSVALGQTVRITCQGDSLRYYYANWYQQKPGQAPILVIYGKNNRPSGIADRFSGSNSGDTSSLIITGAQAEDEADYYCSPRDSSGFQIFFGAGTKLTVL showed 1.54, 2.07, 1.64 (mean 1.75; controls 0 of 9).
Variant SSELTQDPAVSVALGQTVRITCEGDSQRYYYANWYQQKPGQAPILVIYGKNNWPSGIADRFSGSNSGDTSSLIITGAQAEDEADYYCSSRDSSGFQVAFGAGTKLTVL showed 3.01, 5.41, ND (mean 4.21; controls 5 of 9).
Variant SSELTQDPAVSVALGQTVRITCGGDNLRYYYVNWYQQKPGQAPILVIYGKNNRPSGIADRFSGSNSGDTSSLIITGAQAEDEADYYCSSRDSSGFQVFFGAGTKLTVL showed 2.55, 2.61, 2.21 (mean 2.46; controls 6 of 9).
Variant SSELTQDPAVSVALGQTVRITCEGDSLRYLYANWYQQKPGQAPILVIYGKNNRPSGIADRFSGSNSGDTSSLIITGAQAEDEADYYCSSRDSAGFQHFFGAGTKLTVL showed 3.27, 2.53, 2.12 (mean 2.64; controls 2 of 9).
Variant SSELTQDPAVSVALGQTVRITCEGDSLRIYYANWYQQKPGQAPILVIYGKNTRPSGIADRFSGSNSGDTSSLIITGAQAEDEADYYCSMRDSSGFQVFFGAGTKLTVL showed ND, ND, ND (controls 3 of 9).
Variant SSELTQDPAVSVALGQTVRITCEGDSARYYYANWYQQKPGQAPILVIYGKNNRPSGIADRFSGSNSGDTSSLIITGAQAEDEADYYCSSGDSSGFWVFFGAGTKLTVL showed 4.10, 4.32, 4.35 (mean 4.26; controls 8 of 9).
Variant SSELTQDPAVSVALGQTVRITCEGDSLRYYYAVWYQQKPGQAPILVIYAKNNRPSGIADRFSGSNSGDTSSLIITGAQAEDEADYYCSSRTSSGFQVFFGAGTKLTVL showed 4.69, 4.43, 3.22 (mean 4.12; controls 3 of 9).
Variant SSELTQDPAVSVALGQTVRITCEGLSLRYYYATWYQQKPGQAPILVIYGKRNRPSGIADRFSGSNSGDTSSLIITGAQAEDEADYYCSSRDSSGFQVFFGAGTKLTVL showed 2.00, 2.59, 2.32 (mean 2.30; controls 3 of 9).
Variant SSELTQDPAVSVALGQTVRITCEGHSLRYYYPNWYQQKPGQAPILVIYGKNNRPSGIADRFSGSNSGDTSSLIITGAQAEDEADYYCSSQDSSGFQVFFGAGTKLTVL showed 3.53, 2.44, 3.44 (mean 3.14; controls 2 of 9).
Variant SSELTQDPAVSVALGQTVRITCEGDSLRFYYANWYQQKPGQAPILVIYGKNERPSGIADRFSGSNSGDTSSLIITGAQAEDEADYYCSSRMSSGFQVFFGAGTKLTVL showed 5.62, 5.75, ND (mean 5.68; controls 4 of 9).